Data as given in US20150258192A1, “COMPOSITIONS AND METHODS FOR PREVENTING OR TREATING CHRONIC LUNG ALLOGRAFT DYSFUNCTION (CLAD) AND IDIOPATHIC PULMONARY FIBROSIS (IPF)” (priority 2014, published 2015).

Chains of the proteins cited; added tags and fusions are not shown. Lines headed by an entry give the natural chain unless they say otherwise; changes in a name come on top.
UniProt Q86Y07: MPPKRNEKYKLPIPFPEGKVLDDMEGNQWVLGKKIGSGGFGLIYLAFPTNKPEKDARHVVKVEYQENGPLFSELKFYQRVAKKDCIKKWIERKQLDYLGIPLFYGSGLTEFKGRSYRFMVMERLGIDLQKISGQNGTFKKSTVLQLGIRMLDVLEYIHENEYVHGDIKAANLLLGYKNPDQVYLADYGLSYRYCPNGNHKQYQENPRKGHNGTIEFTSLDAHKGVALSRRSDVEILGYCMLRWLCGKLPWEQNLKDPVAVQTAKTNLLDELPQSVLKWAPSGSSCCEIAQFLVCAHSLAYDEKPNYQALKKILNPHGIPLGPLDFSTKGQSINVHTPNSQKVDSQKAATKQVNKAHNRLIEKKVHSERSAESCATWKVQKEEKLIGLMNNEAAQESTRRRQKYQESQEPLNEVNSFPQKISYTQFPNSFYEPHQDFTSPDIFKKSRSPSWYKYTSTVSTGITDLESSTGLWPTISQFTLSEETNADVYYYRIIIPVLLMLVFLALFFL
UniProt Q15349, whole entry: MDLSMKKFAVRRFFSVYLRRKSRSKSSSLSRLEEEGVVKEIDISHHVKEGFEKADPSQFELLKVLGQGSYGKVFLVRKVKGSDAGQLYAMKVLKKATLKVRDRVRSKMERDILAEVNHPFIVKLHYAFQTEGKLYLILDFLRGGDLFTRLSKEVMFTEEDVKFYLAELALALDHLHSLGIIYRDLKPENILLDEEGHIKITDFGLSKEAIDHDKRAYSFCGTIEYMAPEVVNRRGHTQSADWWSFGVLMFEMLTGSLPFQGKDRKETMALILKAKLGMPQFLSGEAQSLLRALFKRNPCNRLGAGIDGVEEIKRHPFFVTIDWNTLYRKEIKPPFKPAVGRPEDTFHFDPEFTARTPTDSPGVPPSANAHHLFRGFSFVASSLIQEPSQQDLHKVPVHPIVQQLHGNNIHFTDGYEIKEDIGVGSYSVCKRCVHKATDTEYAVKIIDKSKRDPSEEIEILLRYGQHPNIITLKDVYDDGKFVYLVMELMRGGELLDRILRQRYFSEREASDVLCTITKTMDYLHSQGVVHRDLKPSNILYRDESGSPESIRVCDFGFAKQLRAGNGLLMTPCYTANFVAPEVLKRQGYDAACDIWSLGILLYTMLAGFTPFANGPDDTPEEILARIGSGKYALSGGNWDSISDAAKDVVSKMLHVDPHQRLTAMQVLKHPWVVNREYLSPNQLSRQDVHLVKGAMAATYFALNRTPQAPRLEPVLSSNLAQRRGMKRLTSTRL
UniProt Q9HCP0: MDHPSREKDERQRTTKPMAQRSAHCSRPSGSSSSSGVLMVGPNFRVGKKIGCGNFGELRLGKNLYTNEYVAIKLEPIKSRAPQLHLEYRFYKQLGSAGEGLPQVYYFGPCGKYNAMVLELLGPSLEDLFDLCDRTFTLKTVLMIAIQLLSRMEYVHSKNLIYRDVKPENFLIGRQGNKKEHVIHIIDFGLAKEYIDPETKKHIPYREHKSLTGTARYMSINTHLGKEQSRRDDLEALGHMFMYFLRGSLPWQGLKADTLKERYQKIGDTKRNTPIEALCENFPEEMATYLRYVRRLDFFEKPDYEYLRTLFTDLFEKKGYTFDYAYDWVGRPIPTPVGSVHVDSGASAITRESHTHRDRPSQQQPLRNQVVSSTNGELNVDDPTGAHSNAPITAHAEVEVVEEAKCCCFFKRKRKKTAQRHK
UniProt Q06187: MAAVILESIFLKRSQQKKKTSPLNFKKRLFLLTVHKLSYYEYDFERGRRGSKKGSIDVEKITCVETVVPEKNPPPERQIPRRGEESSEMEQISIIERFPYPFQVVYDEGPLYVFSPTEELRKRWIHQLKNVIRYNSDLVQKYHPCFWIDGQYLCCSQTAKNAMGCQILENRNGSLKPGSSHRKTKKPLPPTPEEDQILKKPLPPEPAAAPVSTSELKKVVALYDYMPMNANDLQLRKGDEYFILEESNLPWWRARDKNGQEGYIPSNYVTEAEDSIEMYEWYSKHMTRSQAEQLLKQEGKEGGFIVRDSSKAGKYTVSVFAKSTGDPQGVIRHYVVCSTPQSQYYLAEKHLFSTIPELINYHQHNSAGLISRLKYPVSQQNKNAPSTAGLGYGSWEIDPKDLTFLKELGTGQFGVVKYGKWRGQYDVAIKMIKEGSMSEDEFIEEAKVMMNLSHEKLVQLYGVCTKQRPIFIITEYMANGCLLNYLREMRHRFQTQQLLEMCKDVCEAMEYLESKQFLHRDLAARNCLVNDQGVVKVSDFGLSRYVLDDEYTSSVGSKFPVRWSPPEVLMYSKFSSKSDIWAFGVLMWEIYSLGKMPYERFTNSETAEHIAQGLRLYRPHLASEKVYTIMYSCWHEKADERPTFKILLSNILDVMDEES

Tests used:
Assay in all cases: Kinase Profiling Assay
Format in all cases: biochemical
Settings in all cases: peptide 100 μM
JAK3(h) = molecular target: T1, JAK3(h) (Homo sapiens, UniProt P52333)
T1 construct: purchased Millipore
T1 sequence (P52333 1-1124): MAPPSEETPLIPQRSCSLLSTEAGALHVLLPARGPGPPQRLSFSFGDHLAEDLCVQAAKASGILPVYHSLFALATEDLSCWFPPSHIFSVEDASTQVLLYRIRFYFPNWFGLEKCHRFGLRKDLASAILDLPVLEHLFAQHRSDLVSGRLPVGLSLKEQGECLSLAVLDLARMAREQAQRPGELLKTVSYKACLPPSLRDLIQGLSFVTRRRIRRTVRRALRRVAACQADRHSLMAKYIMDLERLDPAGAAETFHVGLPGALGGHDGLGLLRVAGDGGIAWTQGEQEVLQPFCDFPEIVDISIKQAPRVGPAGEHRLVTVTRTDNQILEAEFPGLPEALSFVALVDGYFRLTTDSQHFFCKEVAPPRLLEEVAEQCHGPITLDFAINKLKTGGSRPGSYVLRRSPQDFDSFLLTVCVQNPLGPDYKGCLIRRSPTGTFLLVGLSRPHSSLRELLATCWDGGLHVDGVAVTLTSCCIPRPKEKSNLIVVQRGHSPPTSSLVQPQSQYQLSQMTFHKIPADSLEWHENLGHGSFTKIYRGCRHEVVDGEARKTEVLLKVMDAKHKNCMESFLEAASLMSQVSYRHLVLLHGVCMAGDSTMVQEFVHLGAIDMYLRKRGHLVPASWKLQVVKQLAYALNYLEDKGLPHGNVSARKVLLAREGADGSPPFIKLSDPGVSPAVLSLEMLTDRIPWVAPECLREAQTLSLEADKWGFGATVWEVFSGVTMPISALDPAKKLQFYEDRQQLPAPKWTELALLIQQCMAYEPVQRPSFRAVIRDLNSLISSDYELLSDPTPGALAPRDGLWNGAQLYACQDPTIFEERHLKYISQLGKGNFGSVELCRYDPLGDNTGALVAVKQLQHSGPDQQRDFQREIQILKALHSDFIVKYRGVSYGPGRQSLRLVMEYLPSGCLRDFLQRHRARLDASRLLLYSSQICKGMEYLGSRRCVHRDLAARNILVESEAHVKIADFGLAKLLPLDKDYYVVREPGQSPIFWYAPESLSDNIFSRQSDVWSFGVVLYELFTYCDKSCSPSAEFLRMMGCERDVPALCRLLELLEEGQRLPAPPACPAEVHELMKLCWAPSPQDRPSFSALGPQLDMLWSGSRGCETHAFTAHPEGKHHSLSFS
Experimental: (§1) Every kinase activity measurement was conducted in duplicate.
(§2) Specifically, in these assays, a positively charged substrate is phosphorylated with a radiolabeled phosphate group from an ATP if the kinase is not inhibited by an inhibitor peptide. The positively charged substrate then is attracted to a negatively charged filter membrane, quantified with a scintillation counter, and compared to a 100% activity control.
(§3) In addition to determining the IC50 of the compound, the specificity of MK2 inhibitory peptides was assessed by examining activities of all 266 human kinases available for testing in the Millipore kinase profiling service (Table 1).

CHK1(h) = molecular target: T2, CHK1(h) (Homo sapiens, UniProt O14757)
T2 sequence (O14757 1-476): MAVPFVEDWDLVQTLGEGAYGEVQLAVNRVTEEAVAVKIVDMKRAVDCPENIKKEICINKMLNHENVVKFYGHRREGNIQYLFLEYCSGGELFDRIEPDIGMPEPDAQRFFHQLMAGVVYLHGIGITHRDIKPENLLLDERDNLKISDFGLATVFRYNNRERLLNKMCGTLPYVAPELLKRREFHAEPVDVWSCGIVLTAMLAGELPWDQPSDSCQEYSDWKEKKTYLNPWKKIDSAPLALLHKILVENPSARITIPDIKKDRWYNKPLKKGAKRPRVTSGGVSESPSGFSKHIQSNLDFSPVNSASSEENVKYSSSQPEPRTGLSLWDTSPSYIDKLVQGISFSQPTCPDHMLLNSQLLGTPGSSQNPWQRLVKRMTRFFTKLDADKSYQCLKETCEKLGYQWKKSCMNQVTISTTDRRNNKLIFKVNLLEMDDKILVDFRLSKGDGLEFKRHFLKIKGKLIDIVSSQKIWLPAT
Experimental: as §1, §2, §3

VRK2(h) = VRK2(h) (Homo sapiens, UniProt Q86Y07)
Experimental: as §1, §2, §3

Rsk3(h) = molecular target: T3, Rsk3(h) (Homo sapiens, UniProt Q15349)
T3 construct: purchased Millipore
Experimental: as §1, §2, §3

EGFR(T790M)(h) = EGFR(T790M)(h) (Homo sapiens, UniProt P00533, T790M)
Experimental: as §1, §2, §3

DDR2(h) = molecular target: T4, DDR2(h) (Homo sapiens, UniProt Q16832)
T4 sequence (Q16832 22-855): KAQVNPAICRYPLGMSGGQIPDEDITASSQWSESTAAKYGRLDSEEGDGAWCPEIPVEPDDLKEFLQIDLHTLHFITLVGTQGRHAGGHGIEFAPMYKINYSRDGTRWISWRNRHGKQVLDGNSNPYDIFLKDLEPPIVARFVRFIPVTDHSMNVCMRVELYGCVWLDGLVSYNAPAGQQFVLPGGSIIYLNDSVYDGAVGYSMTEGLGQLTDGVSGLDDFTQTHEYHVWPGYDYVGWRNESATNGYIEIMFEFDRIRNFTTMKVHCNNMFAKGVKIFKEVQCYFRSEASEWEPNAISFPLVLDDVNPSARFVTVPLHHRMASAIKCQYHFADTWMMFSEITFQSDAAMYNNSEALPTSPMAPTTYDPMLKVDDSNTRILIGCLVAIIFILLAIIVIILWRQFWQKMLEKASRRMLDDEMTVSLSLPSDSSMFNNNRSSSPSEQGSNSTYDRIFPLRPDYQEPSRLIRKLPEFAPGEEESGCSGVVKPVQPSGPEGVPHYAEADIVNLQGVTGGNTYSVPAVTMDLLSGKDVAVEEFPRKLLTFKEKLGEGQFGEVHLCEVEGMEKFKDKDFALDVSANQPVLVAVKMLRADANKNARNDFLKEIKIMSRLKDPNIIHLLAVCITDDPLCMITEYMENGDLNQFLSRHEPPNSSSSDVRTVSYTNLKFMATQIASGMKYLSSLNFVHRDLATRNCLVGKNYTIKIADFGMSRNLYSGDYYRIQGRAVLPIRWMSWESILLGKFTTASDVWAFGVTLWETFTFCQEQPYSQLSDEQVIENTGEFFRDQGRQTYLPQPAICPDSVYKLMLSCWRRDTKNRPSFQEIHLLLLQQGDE
Experimental: as §1, §2, §3

CK1γ1(h) = CK1γ1(h) (Homo sapiens, UniProt Q9HCP0)
Experimental: as §1, §2, §3

BTK(h) = BTK(h) (Homo sapiens, UniProt Q06187)
Experimental: as §1, §2, §3

Row | Molecule | % activity (JAK3(h)) [%] | % activity (CHK1(h)) [%] | % activity (VRK2(h)) [%] | % activity (Rsk3(h)) [%] | % activity (EGFR(T790M)(h)) [%] | % activity (DDR2(h)) [%] | % activity (CK1γ1(h)) [%] | % activity (BTK(h)) [%]
1 | YARAAARQARAKALNRQLGVA (Mammal) [MMI-0200] | 117 | 115 | 109 | 109 | 113 | 104 |  | 
2 | FAKLAARLYRKALARQLGVAA [MMI-0300] | 121 |  |  |  |  |  | 111 | 102
3 | CC(C)C[C@H](NC(=O)[C@H](C)NC(=O)[C@H](CCCCN)NC(=O)[C@H](C)NC(=O)[C@H](CCCNC(=N)N)NC(=O)[C@H](C)NC(=O)[C@H](CCC(N)=O)NC(=O)[C@H](CCCNC(=N)N)NC(=O)[C@H](C)NC(=O)[C@H](C)NC(=O)[C@H](C)NC(=O)[C@H](CCCNC(=N)N)NC(=O)[C@H](C)NC(=O)[C@@H](N)Cc1ccc(O)cc1)C(=O)N[C@@H](C)C(=O)N[C@@H](CCCNC(=N)N)C(=O)N[C@@H](CCC(N)=O)C(=O)N[C@@H](CC(C)C)C(=O)NCC(=O)N[C@H](C(=O)N[C@@H](C)C(=O)N[C@@H](C)C(=O)O)C(C)C [MMI-0100] |  | 97 | 112 | 76 | 106 | 105 | 110 | 112
